Results on 17 compounds are retold here after patent publication US10174016B2 (BAYER AKTIENGESELLSCHAFT, priority 2014, dated 2019).

Chains of the proteins cited; added tags and fusions are not shown. Lines headed by an entry give the natural chain unless they say otherwise; changes in a name come on top.
UniProt P56373: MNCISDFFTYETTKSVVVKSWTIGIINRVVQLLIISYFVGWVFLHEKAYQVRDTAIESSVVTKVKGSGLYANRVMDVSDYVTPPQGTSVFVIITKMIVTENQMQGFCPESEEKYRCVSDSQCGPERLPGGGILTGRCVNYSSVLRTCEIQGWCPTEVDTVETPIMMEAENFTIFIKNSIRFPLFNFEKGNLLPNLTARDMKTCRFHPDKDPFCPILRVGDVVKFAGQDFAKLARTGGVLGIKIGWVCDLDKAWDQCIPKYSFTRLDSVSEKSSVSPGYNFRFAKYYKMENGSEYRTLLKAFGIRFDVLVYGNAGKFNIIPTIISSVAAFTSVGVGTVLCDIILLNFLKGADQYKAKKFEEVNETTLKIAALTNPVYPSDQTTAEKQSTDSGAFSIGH
UniProt Q9UBL9: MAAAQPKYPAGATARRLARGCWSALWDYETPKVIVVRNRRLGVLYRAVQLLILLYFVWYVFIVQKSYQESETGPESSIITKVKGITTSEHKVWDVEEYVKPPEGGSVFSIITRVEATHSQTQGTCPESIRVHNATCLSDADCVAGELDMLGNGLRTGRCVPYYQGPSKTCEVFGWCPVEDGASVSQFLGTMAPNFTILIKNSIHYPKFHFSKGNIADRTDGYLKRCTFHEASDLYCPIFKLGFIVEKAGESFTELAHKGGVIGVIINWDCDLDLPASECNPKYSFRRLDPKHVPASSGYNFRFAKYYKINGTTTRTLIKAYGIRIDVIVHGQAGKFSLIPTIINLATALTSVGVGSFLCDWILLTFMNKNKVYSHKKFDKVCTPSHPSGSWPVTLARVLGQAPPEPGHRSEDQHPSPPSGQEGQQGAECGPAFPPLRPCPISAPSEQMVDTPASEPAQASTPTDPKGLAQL

pIC50: −log10 of the molar value. Like-named read-outs stand apart in the source and are kept apart here.

The target of one assay is human P2X3 receptor (Homo sapiens (Human), UniProt P56373). As to conditions: for pIC50: read-out: hP2X3 IC50; for IC50: hP2X3 IC50 (nM).
The target in the next assay is human P2X2/3 receptor (Homo sapiens (Human), UniProt P56373+Q9UBL9). Briefly: Intracellular calcium measurement (FLIPR, Fluo-4) of antagonist activity at human P2X2/3 receptors. The format is cell-based. The following applies: human P2X2/3, FLIPR calcium assay, agonist α,β-Me-ATP; read-out: hP2X2/3 IC50.
The mark [1] stands for this setting: human P2X3, FLIPR calcium assay, agonist α,β-Me-ATP.

Regarding `Cc1cnc(-c2cc(OC(C)C(C)O)cc(C(=O)N[C@H](C)c3cnc(C(F)(F)F)nc3)c2)s1` (single isomer, unassigned) [Example 339], the pIC50 is 8.30 at human P2X3 receptor and 6.60 on human P2X2/3 receptor.
For `Cc1cnc(-c2cc(OC3C4COCC3CN(C)C4)cc(C(=O)N[C@H](C)c3cnc(C(F)(F)F)nc3)c2)s1` (single isomer, unassigned) [Example 342], the pIC50 at human P2X3 receptor (setting [1]) is 7.40; on human P2X2/3 receptor, 5.72.
As for `Cc1cnc(-c2cc(OCC3CN(C)CCC3(F)F)cc(C(=O)N[C@H](C)c3cnc(C(F)(F)F)nc3)c2)s1` (stereo partly drawn) [Example 383, 3-{[4,4-difluoro-1-methylpiperidin-3-yl]methoxy}-5-(5-methyl-1,3-thiazol-2-yl)-N-{(1R)-1-[2-(trifluoromethyl)pyrimidin-5-yl]ethyl}benzamide], the pIC50 at human P2X3 receptor (setting [1]) was 8.70; at human P2X2/3 receptor, 7.46.
The like results for `Cc1cnc([C@@H](C)NC(=O)c2cc(OC[C@@H]3CCOC3)cc(-c3ncc(C(C)C)s3)c2)cn1` [Example 265, N-[(1R)-1-(5-methylpyrazin-2-yl)ethyl]-3-[5-(propan-2-yl)-1,3-thiazol-2-yl]-5-[(3R)-tetrahydrofuran-3-ylmethoxy]benzamide] were, in that order, 6.98 and 6.16.
A word on the IC50: it is the midpoint of a concentration-inhibition curve. On to `Cc1cnc(-c2cc(O[C@@H]3CCOC3)cc(C(=O)NC(C)c3nnc(C(F)(F)F)s3)c2)s1` (single isomer, unassigned) [Example 198], for which the IC50 on human P2X3 receptor (setting [1]) is 30 nM. Besides, the pIC50 at human P2X2/3 receptor is 6.61.
For `Cc1cnc(-c2cc(OCC3(C)CCOC3)cc(C(=O)N[C@H](C)c3cnc(C(F)(F)F)nc3)c2)s1` (stereo partly drawn) [Example 332, 3-[(3-methyltetrahydrofuran-3-yl)methoxy]-5-(5-methyl-1,3-thiazol-2-yl)-N-{(1R)-1-[2-(trifluoromethyl)pyrimidin-5-yl]ethyl}benzamide] the same measures were 4 nM and 6.76.
For `Cc1cnc(-c2cc(OC3CCC(=O)N(C)C3)cc(C(=O)N[C@H](C)c3cnc(C(F)(F)F)nc3)c2)s1` (stereo partly drawn) [Example 335, 3-[(1-methyl-6-oxopiperidin-3-yl)oxy]-5-(5-methyl-1,3-thiazol-2-yl)-N-{(1R)-1-[2-(trifluoromethyl)pyrimidin-5-yl]ethyl}benzamide] the same measures were 13 nM and 6.27.
With `Cc1cnc(-c2cc(OC[C@H]3CN(C(=O)OC(C)(C)C)CCO3)cc(C(=O)N[C@H](C)c3cnc(C(F)(F)F)nc3)c2)s1` [Example 346, Tert-butyl (2R)-2-{[3-(5-methyl-1,3-thiazol-2-yl)-5-({(1R)-1-[2-(trifluoromethyl)pyrimidin-5-yl]ethyl}carbamoyl)phenoxy]methyl}morpholine-4-carboxylate], the pIC50 was 7.89 on human P2X3 receptor (setting [1]) and 6.48 at human P2X2/3 receptor.
Take `CCc1cnc(-c2cc(OC[C@@H]3CCCO3)cc(C(=O)N[C@H](C)c3ccc(C)nn3)c2)s1` [Example 282, 3-(5-ethyl-1,3-thiazol-2-yl)-N-[(1R)-1-(6-methylpyridazin-3-yl)ethyl]-5-[(2S)-tetrahydrofuran-2-ylmethoxy]benzamide]: the pIC50 at human P2X3 receptor is 8.10; at human P2X2/3 receptor it was 6.68.
On to `Cc1cnc(-c2cc(O[C@@H]3CCCN(C)C3)cc(C(=O)N[C@H](C)c3cnc(C(F)(F)F)nc3)c2)s1` [Example 158, 3-{[(3R)-1-methylpiperidin-3-yl]oxy}-5-(5-methyl-1,3-thiazol-2-yl)-N-{(1R)-1-[2-(trifluoromethyl)pyrimidin-5-yl]ethyl}benzamide], for which the figures for the pIC50 at human P2X3 receptor (setting [1]) and on human P2X2/3 receptor were 7.68 and 5.71, respectively.
On to `Cc1cnc(-c2cc(O[C@H]3CCCN(C)C3)cc(C(=O)N[C@H](C)c3cnc(C(F)(F)F)nc3)c2)s1` [Example 155, 3-{[(3S)-1-methylpiperidin-3-yl]oxy}-5-(5-methyl-1,3-thiazol-2-yl)-N-{(1R)-1-[2-(trifluoromethyl)pyrimidin-5-yl]ethyl}benzamide], for which the values for the pIC50 on human P2X3 receptor (setting [1]) and at human P2X2/3 receptor were 7.40 and 5.64, respectively.
For `Cc1cnc(-c2cc(OC3CCN(CC(F)(F)F)CC3)cc(C(=O)N[C@H](C)c3cnc(C(F)(F)F)nc3)c2)s1` [Example 303, 3-(5-methyl-1,3-thiazol-2-yl)-5-{[1-(2,2,2-trifluoroethyl)piperidin-4-yl]oxy}-N-{(1R)-1-[2-(trifluoromethyl)pyrimidin-5-yl]ethyl}benzamide] the same measures were 8.30 and 7.42.
Regarding `CCc1cnc(-c2cc(OC[C@H]3CCCO3)cc(C(=O)N[C@H](C)c3ccc(C)nn3)c2)s1` [Example 267, 3-(5-ethyl-1,3-thiazol-2-yl)-N-[(1R)-1-(6-methylpyridazin-3-yl)ethyl]-5-[(2R)-tetrahydrofuran-2-ylmethoxy]benzamide], the pIC50 is 7.85 on human P2X3 receptor and 6.76 on human P2X2/3 receptor.
Regarding `CCc1cnc(-c2cc(OC[C@@H]3CCOC3)cc(C(=O)N[C@H](C)c3ccc(C)nn3)c2)s1` [Example 258, 3-(5-ethyl-1,3-thiazol-2-yl)-N-[(1R)-1-(6-methylpyridazin-3-yl)ethyl]-5-[(3R)-tetrahydrofuran-3-ylmethoxy]benzamide], the pIC50 is 8.40 on human P2X3 receptor (setting [1]) and 7.42 at human P2X2/3 receptor.
Take `Cc1cnc(-c2cc(OCC3(F)CCCN(C)C3)cc(C(=O)N[C@H](C)c3cnc(C(F)(F)F)nc3)c2)s1` (single isomer, unassigned) [Example 357]: the IC50 at human P2X3 receptor (setting [1]) was 5 nM. In addition, the pIC50 on human P2X2/3 receptor was 6.51.
In the case of `Cc1cnc(-c2cc(O[C@@H]3CCOC3)cc(C(=O)NC(C)c3nnc(C(F)(F)F)s3)c2)s1` (single isomer, unassigned) [Example 197], the IC50 at human P2X3 receptor (setting [1]) is 1150 nM. Further, on human P2X2/3 receptor, the pIC50 is at most 5.00.
In the case of `Cc1cnc(-c2cc(OC(C)C(C)O)cc(C(=O)N[C@H](C)c3cnc(C(F)(F)F)nc3)c2)s1` (stereo in doubt) [Example 340, 3-[(3-hydroxybutan-2-yl)oxy]-5-(5-methyl-1,3-thiazol-2-yl)-N-{(1R)-1-[2-(trifluoromethyl)pyrimidin-5-yl]ethyl}benzamide], on human P2X3 receptor, the IC50 stood at 3 nM. The pIC50 at human P2X2/3 receptor was 6.99.
